Only some compounds are listed: those with a hit (about 3.7% of all), similar ones and a draw of the others.
Nrf2 activator: activates Nrf2 signaling; AREc32 ARE-luciferase reporter (MCF7-derived line), luminescence, 24 h; Potency, µM (top dose mostly 46.1 µM), without a hit: at the highest dose activation, actives largely listed as activators; 0.31% of 410,000 active; note: potency is the fitted concentration of half-maximal effect; % of control where 0% means no effect; nearly all actives have a fitted effect of over 65% in size
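AREc32 cells carrying an ARE-driven firefly luciferase reporter were seeded at 1000 cells/well in OPTI-MEM with 5% FBS, then exposed to compound for 24 hr at 37 deg C. Luminescence was read with Steady-Glo after 30 min at RT.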
TCR activator: T cell receptor activation | primary human leukocytes, anti-CD3, IL-2 HTRF, 48 h | Potency, µM (doses to about 9.22 µM), without a hit: at the top dose activation of IL-2 secretion, hits mostly activators | 330,000 tested, under 10 active | AID 504894; note: % of control where 0% means no effect
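Human primary leukocytes + a-CD3 beads + cpd, 48 hr; IL-2 in supernatant by HTRF (ex 320nm / em 665nm). No co-stimulatory signal supplied.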
ClpP mod: qHTS Assay for Activators of ClpP; 1.9% of 340,000 active; purified B. subtilis ClpP, FRET peptide cleavage, 20 min; ATP-dependent Clp protease proteolytic subunit (Bacillus subtilis (strain 168)), P80244; Potency, µM (doses to about 57.5 µM), for the others: at the highest dose activity change, negative = active; active = well fitted falling curve with a large enough effect; inconclusive = small, poorly fitted or top-dose-only effect; inactive = no such curve, though single readings can be large or run the other way; note: potency is the fitted concentration of half-maximal effect; the source files actives as falling curves though it sought activators and does not explain the sign; nearly all actives have a fitted effect of over 65% in size
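Buffer: 100 mM Tris/HCl pH8, 100 mM KCl, 0.05% low protease BSA, 2.5% glycerol, 0.01% Tween-20. ClpP 10 microg/mL final; 20 min RT; delta FRET normalized to ADEP and DMSO controls.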
miR-21 FLuc: miR-21 reporter, rising signal; Potency, µM (titrated, usually from 38.3 µM), without a hit: at the highest dose reporter change, positive = more light; AID 2288; 340,000 tested, under 10 active; HeLa miR-21 FLuc reporter, luciferase, 48 h; active = well fitted rising curve with a large enough effect; inconclusive = small, poorly fitted or top-dose-only effect; inactive = no such curve, though single readings can be large or run the other way;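 note: % of control where 0% means no effect; miR-21 action dims this reporter so a rising signal means less miR-21 action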
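Luminescence from a firefly luciferase reporter carrying a miR-21 binding site downstream, stably expressed under a CMV promoter in HeLa cells that make miR-21 endogenously, reports miRNA modulation after 48 h compound exposure up to approximately 40uM final.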
Nrf2 block: inhibitors of Nrf2 signaling; 2.1% of 360,000 active; Potency, µM (top dose mostly 46 µM), for the others: top-dose activity change, negative = inhibition, actives largely listed as inhibitors; A549 ARE-Fluc reporter, luciferase luminescence, 18-24 h; AID 504444; note: potency is the fitted concentration of half-maximal effect; % is set by controls: 0 for no effect and ±100 for the full control effect; nearly all actives have a fitted effect of over 60% in size
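Nrf2 function is reported as luminescence of an ARE-controlled luciferase in A549 cells. Compounds were tested at several concentrations, and a CellTiter-Fluor read on the same wells flagged cytotoxicity.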
A549 tox: A549 cytotoxicity, counter-screen for Nrf2 inhibitors; A549 ARE-Fluc cells, CellTiter-Fluor viability, 18-24 h; Potency, µM (top dose mostly 46 µM), for inactives: top-dose activity change, negative = cytotoxicity, actives largely listed as inhibitors; 0.16% of 390,000 active; note: potency is the fitted concentration of half-maximal effect; % is set by controls: 0 for no effect and ±100 for the full control effect
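Cytotoxicity counterscreen: CellTiter-Fluor fluorescence was measured in A549 ARE_Fluc cells after 18-24 h of compound exposure in a concentration series. The subsequent BugLite luminescent read reports ARE-luciferase activity.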
An asterisk follows results filed as active; [ ] = remark or other dose. Unless noted, calls come from the whole dose curve; as a rule, active = well fitted curve in the direction sought with a large enough effect; inconclusive = small, poorly fitted or top-dose-only effect, or another doubt; inactive = no such curve, though single readings can be large; an effect the other way counts as inactive or inconclusive.

What do the screens show for `COc1ccc(NS(=O)(=O)c2ccc3c(c2)N(C(C)=O)CC(C)S3)c(OC)c1` (centres undefined)?
Nrf2 activator: 2%; TCR activator: 0%; ClpP mod: -3%; miR-21 FLuc: 13%; Nrf2 block: -9%; A549 tox: -8%

What do the screens show for `COC(=O)c1c(NC(=O)CN2CCC3(O)CCCCC3C2c2ccc(F)cc2)sc(C)c1C` (centres undefined)?
Nrf2 activator: 2%; TCR activator: 0%[46.1 µM]; ClpP mod: -20%; miR-21 FLuc: 0%; Nrf2 block: inconclusive; A549 tox: -15%

What do the screens show for `COC(=O)c1c(NC(=O)CN2CCC3(O)CCCCC3C2c2cc(OC)ccc2OC)sc(C)c1C` (centres undefined)?
Nrf2 activator: 3%; TCR activator: -6%[46.1 µM]; ClpP mod: 28µM*; miR-21 FLuc: inconclusive; Nrf2 block: 18µM*; A549 tox: -24%

What do the screens show for `O=C(/C=C\c1ccco1)Nc1nc(-c2ccc3ccccc3c2)cs1`?
Nrf2 activator: 3%; TCR activator: 6%[46.1 µM]; ClpP mod: -18%; miR-21 FLuc: 13%; Nrf2 block: 15µM*; A549 tox: 14%

Results for O=C(COC(=O)/C=C/c1cccs1)Nc1nc(-c2ccccc2)cs1 ?
Nrf2 activator: inconclusive; TCR activator: -6%[46.1 µM]; miR-21 FLuc: -26%; Nrf2 block: inconclusive; A549 tox: 0%

Results for O=C(Nc1nc(-c2ccccc2)cs1)c1ccco1 ?
Nrf2 activator: 14µM*; TCR activator: -4%; miR-21 FLuc: -38%; Nrf2 block: 15%; A549 tox: 1%

Results for O=C(COC(=O)c1cccs1)Nc1nc(-c2ccccc2)cs1 ?
Nrf2 activator: 2%; TCR activator: -4%[46.1 µM]; ClpP mod: 32µM*; miR-21 FLuc: -28%; Nrf2 block: 20%; A549 tox: 2%

What do the screens show for `COCCN(C(=O)c1ccco1)c1nc(-c2ccccc2)cs1`?
Nrf2 activator: 10µM*; ClpP mod: 0%; miR-21 FLuc: -39%; Nrf2 block: inconclusive; A549 tox: 0%

How did Nc1nccc(NCCSCc2ccccc2)n1 do in these assays?
Nrf2 activator: 1%; TCR activator: -4%; Nrf2 block: inconclusive; A549 tox: -3%

Results for O=C(NCCS(=O)(=O)N1CCN(c2ccc(F)cc2)CC1)c1cccc(C(F)(F)F)c1 ?
Nrf2 activator: 4%; ClpP mod: 4%; miR-21 FLuc: 10%; A549 tox: -2%

How did COc1ccc(N2C(=NC(=O)c3ccc(Br)cc3)SC3CS(=O)(=O)CC32)cc1 (centres undefined) do in these assays?
Nrf2 activator: -1%; TCR activator: -129%; ClpP mod: 0%; Nrf2 block: -1%; A549 tox: 0%

What do the screens show for `O=C(NCc1ccccc1)c1cccn1-c1nnc(N2CCCC2)s1`?
Nrf2 activator: 0%; ClpP mod: -1%; miR-21 FLuc: -1%; Nrf2 block: inconclusive; A549 tox: -17%

How did O=C(Nc1ccc2nc(-c3ccccc3)[nH]c2c1)c1ccco1 do in these assays?
Nrf2 activator: 8%; TCR activator: -2%; ClpP mod: 28µM*; miR-21 FLuc: -43%; Nrf2 block: inconclusive; A549 tox: 1%

Results for O=C(Nc1cccc(-c2nc3ccccc3[nH]2)c1)c1cccc(NC(=O)c2ccco2)c1 ?
Nrf2 activator: -1%; ClpP mod: inconclusive; miR-21 FLuc: inconclusive; A549 tox: inconclusive

Results for CCOC(=O)C1CCN(c2ncnc3c2nc2n3CCCCC2)CC1 ?
Nrf2 activator: 0%; ClpP mod: 0%; miR-21 FLuc: -22%; Nrf2 block: inconclusive; A549 tox: 11%

Results for COc1cccc(C(=O)Nc2ccncc2)c1OC ?
Nrf2 activator: 0%; ClpP mod: -1%; miR-21 FLuc: 7%; Nrf2 block: 23µM*; A549 tox: -4%

Results for COc1ccc(C(=O)Nc2ccc3c(c2)CCCN3C(=O)c2cccs2)c(OC)c1 ?
Nrf2 activator: 0%; TCR activator: 1%; ClpP mod: 1%; miR-21 FLuc: 28%; Nrf2 block: -1%; A549 tox: -4%

What do the screens show for `COc1cccc(C(=O)Nc2ccc3c(c2)CCCN3C(=O)c2cccs2)c1OC`?
Nrf2 activator: 4%; TCR activator: 7%; ClpP mod: -1%; miR-21 FLuc: 11%; Nrf2 block: 21µM*; A549 tox: -11%

Results for COc1ccccc1C(=O)Nc1ccncc1 ?
Nrf2 activator: -2%[9.22 µM]; TCR activator: -5%; miR-21 FLuc: -4%; Nrf2 block: -19%; A549 tox: -1%

What do the screens show for `CCN(C)c1cc2c(c3c1ccn3C)C1CCC2C1` (centres undefined)?
Nrf2 activator: -1%; ClpP mod: -9%

Next section; the last 3 above are carried over.
What do the screens show for `COc1cccc(C(=O)Nc2ccc3c(c2)CCCN3C(=O)c2cccs2)c1OC`?
Nrf2 activator: 4%; TCR activator: 7%; ClpP mod: -1%; miR-21 FLuc: 11%; Nrf2 block: 21µM*; A549 tox: -11%

Results for COc1ccccc1C(=O)Nc1ccncc1 ?
Nrf2 activator: -2%[9.22 µM]; TCR activator: -5%; miR-21 FLuc: -4%; Nrf2 block: -19%; A549 tox: -1%

What do the screens show for `CCN(C)c1cc2c(c3c1ccn3C)C1CCC2C1` (centres undefined)?
Nrf2 activator: -1%; ClpP mod: -9%

How did COc1ccccc1N(C)c1cc2c(c3c1ccn3C)C1CCC2C1 (centres undefined) do in these assays?
Nrf2 activator: -1%; ClpP mod: 32µM*

Results for CC12CCC(/C(=N/O)C1=O)C2(C)C (centres undefined) ?
Nrf2 block: -5%; A549 tox: -3%

How did COC(=O)c1[nH]c2ccc(Cl)cc2c1NC(=O)Oc1ccccc1 do in these assays?
Nrf2 activator: -1%; TCR activator: 2%; ClpP mod: 10µM*; miR-21 FLuc: -33%; Nrf2 block: 1%; A549 tox: -12%

How did CCOC(=O)C1CCN(CC(=O)Nc2c(C(=O)OC)[nH]c3ccccc23)CC1 do in these assays?
miR-21 FLuc: 3%

How did COC(=O)c1[nH]c2ccc(Cl)cc2c1NC(=O)CCN1CCN(C2CCCCC2)CC1 do in these assays?
Nrf2 activator: 6%; TCR activator: 1%; ClpP mod: -25%; miR-21 FLuc: -13%; Nrf2 block: 4%; A549 tox: -23%

How did COC(=O)c1[nH]c2ccc(Cl)cc2c1NC(=O)C1CC1 do in these assays?
Nrf2 activator: 3%; TCR activator: 1%; ClpP mod: 32µM*; miR-21 FLuc: 3%; Nrf2 block: -2%; A549 tox: 3%

What do the screens show for `CCOC(=O)C1CCN(CC(=O)Nc2c(C(=O)OC)[nH]c3ccc(Cl)cc23)CC1`?
Nrf2 activator: 4%; TCR activator: 9%; ClpP mod: 28µM*; miR-21 FLuc: 22%; Nrf2 block: -18%; A549 tox: -22%
